Measurements taken from PubChem BioAssay AID493056 (National Center for Advancing Translational Sciences (NCATS), 2011).
Only a part is listed here, and it is no random draw. The source made the active and inactive calls. Cut-off read from the data, not from the text of the source: active = enhancement above about 30%; inactive = the rest.

By UniProt entry, the sequences of proteins in these tests, tags left out.
UniProt P34981, whole entry: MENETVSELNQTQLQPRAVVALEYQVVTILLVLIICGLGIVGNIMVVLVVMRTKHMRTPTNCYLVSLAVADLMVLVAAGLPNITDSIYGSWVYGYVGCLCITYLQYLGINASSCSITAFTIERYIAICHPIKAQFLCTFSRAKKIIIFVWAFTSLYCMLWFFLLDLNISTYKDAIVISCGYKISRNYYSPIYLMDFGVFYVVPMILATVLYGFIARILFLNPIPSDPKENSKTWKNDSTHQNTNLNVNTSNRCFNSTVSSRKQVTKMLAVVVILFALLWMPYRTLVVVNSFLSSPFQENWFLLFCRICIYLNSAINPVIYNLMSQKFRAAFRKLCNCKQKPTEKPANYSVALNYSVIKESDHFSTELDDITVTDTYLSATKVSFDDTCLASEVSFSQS

Biological target: Thyrotropin-releasing hormone receptor (Homo sapiens) (UniProt P34981)
Experiment: qHTS for Small Molecule Agonists and Allosteric Enhancers of Human TRH Receptor: Primary Screen for Enhancers; note: 0% is about no effect
Conditions: TRHR cells, fluo-8 calcium fluorescence, EC20 TRH enhancement; at 2 µM; stronger effect = higher value
Description: NIH Chemical Genomics Center [NCGC] NIH Molecular Libraries Probe Centers Network [MLPCN] MLPCN Grant: MH089816-01 Assay Submitter (PI): Marvin Gershengorn This project aims to identify small drug-like molecules that activate (agonists) the thyrotropin releasing hormone (TRH) receptor (TRHR) or enhance its TRH-stimulated activity (allosteric enhancers). TRHR, a drug-accessible cell surface receptor expressed in specific brain regions, and its ligand TRH have been implicated in several central nervous system disorders, including depression and anxiety. Small molecule TRHR agonists or allosteric enhancers that are metabolically stable and able to cross the blood-brain barrier might serve as probes to elucidate the roles of brain TRH receptors in animal models, and might be valuable as lead compounds for the development of drugs to treat patients with central nervous system disorders. Upon TRHR-Gq activation in TRHR cells, intracellular calcium is released from stores in the endoplasmic reticulum. […] This primary screen measures compound-induced enhancement of an EC20 stimulation of the receptor by its native ligand.
For the HTS assay freshly prepared cells are plated at a density of 2000/well in 3 ul of complete DMEM medium containing 10% serum in 1536-well plates and cultured over night at 37 C in a humidified incubator with 5% CO2. The next day, 2 ul of a no wash calcium dye (ABD Bioquest) was added to the cells and plates were incubated at room temperature for 1 hour. For the assay, assay plates were loaded into the FDSS kinetic plate reader. A 10 cycle (1 second/cycle) baseline measurement is taken and then the FDSS online 1536 pintool delivers 23 nl of compound library (as well as TRH controls) to the plate. The plate is measured for kinetically at 1 cycle/sec for 180 seconds and is considered to be the agonist portion of the assay (eg, compounds which activate a positive calcium response during this portion are flagged as potential agonists). Following the 180 second read, 1 ul of either an EC20 (positive modulation assay) is delivered by an onboard pipette head. Measurements are taken kinetically for an additional 180 seconds. TRHR FDSS Screening Protocol 1. Reagent, 3 uL 2000 cells/well 1536 TC treated Black plate in media containing 10% FCS 2. Time, 18 hours, 33.5C 5% CO2 (cells grown at 37C) 3. Reagent, 2 uL ABD fluo-8 Ca dye 4. Time, 30 min-1.5hrs hours, Room temp (6 plates/batch) 5. Detector, EX 480/EM 530C, FDSS 10 cycles baseline (1sec/cycle) 6. Compound, 23 nL of stock solution from library 7. Detector, EX 480/EM 530C, FDSS 230 cycles (1sec/cycle) Agonist mode 8. Compound, 1 ul EC20 of TRH made up in HEPES HBSS, 10 nM final 9. Detector, EX 480/EM 530C, FDSS 100 cycles (1sec/cycle) Potentiator mode

| SMILES | enhancement |
| --- | --- |
| COc1ccccc1OP(C)(=O)Nc1cccc(Br)c1 (centres undefined) | inactive: -0.591% |
| CCOC(=O)c1ccc(NP(C)(=O)Oc2cc(C)cc(C)c2)cc1 (centres undefined) | inactive: 3.67% |
| Cc1cc(C)cc(OP(C)(=O)Nc2ccc(C)cc2C)c1 (centres undefined) | inactive: -1.66% |
| Cc1ccc(C)c(NP(C)(=O)Oc2ccccc2)c1 (centres undefined) | inactive: 8.45% |
| Cc1cc(C)cc(OP(C)(=O)Nc2ccccn2)c1 (centres undefined) | inactive: 2.96% |
| CP(=O)(Nc1cccc(Br)c1)Oc1ccccc1 (centres undefined) | inactive: 1.62% |
| CC1=NCCc2c1[nH]c1ccccc21.O=[N+]([O-])c1cc([N+](=O)[O-])c(O)c([N+](=O)[O-])c1 | inactive: 1.81% |
| CC1=C2N=C(C=C3N=C(C(C)=C4[N-][C@@](C)([C@@H]5N=C1[C@](C)(CCC(=O)NC[C@@H](C)OP(=O)([O-])O[C@H]1[C@@H](O)[C@@H](n6cnc7cc(C)c(C)cc76)O[C@@H]1CO)[C@H]5CC(N)=O)[C@@](C)(CC(N)=O)[C@@H]4CCC(N)=O)[C@@](C)(CC(N)=O)[C@@H]3CCC(N)=O)C(C)(C)[C@@H]2CCC(N)=O.[C-]#N.[Co+3] | inactive: -0.0615% |
| O=[N+]([O-])c1cc([N+](=O)[O-])c(Nc2nnnn2CCO)c([N+](=O)[O-])c1 | inactive: 3.04% |
| COc1ccccc1OP(C)(=O)Nc1c(C)cccc1C (centres undefined) | inactive: -8.75% |
| CN1CCCCC1COC(=O)C1(O)c2ccccc2CCc2ccccc21 (centres undefined) | inactive: 11.4% |
| CCCOc1ccc(NP(C)(=O)Oc2ccc(Cl)cc2)cc1 (centres undefined) | inactive: -1.29% |
| CP(=O)(Nc1ccc(SC(F)(F)F)cc1)Oc1ccccc1 (centres undefined) | inactive: 3% |
| O=[N+]([O-])c1cc([N+](=O)[O-])c(-n2nnc3ccccc32)c([N+](=O)[O-])c1 | inactive: -1.55% |
| Cc1nc2ccc3ccccc3c2s1.O=[N+]([O-])c1cc([N+](=O)[O-])c(O)c([N+](=O)[O-])c1 | inactive: 2.66% |
| Cc1cccc(C)c1OP(C)(=O)Nc1ccc(SC(F)(F)F)cc1 (centres undefined) | inactive: -7.65% |
| CP(=O)(Nc1ccc(SC(F)(F)F)cc1)Oc1ccc(Cl)cc1 (centres undefined) | inactive: 1.76% |
| CP(=O)(Oc1ccccc1)OC(c1ccccc1)C(F)(F)F (centres undefined) | inactive: 1.35% |
| CP(=O)(NC(=O)Nc1ccccc1)Oc1ccccc1 (centres undefined) | inactive: -4.51% |
| CCc1ccc(OP(C)(=O)N2CCN(c3ccc([N+](=O)[O-])cc3)CC2)cc1 (centres undefined) | inactive: 3.47% |

| SMILES | enhancement |
| --- | --- |
| Cc1cc(C)cc(OP(C)(=O)Nc2ccc(SC(F)(F)F)cc2)c1 (centres undefined) | inactive: 18.1% |
| CCOC(=O)c1ccc(NP(C)(=O)Oc2ccc(OC)cc2)cc1 (centres undefined) | inactive: -0.314% |
| CCOP(C)(=S)SCC(=O)NC(C)C(=O)O (centres undefined) | inactive: 4.24% |
| CP(=O)(Nc1ccccn1)Oc1ccc(Cl)cc1 (centres undefined) | inactive: 5.1% |
| CP(=S)(Nn1cnnc1)Oc1ccccc1 (centres undefined) | inactive: -2.93% |
| CP(=O)(Nc1ccccc1Br)Oc1ccccc1 (centres undefined) | inactive: -1.13% |
| COc1ccccc1OP(C)(=O)Nc1ccccc1 (centres undefined) | inactive: 1.47% |
| O=[N+]([O-])c1cc([N+](=O)[O-])c(Nc2cccnc2)c([N+](=O)[O-])c1 | inactive: -4.81% |
| O=[N+]([O-])c1ccc2c(c1)C=Nc1ccccc1O2 | inactive: -1.78% |
| CC(C)(C)c1ccc(OP(C)(=O)Nc2ccc(SC(F)(F)F)cc2)cc1 (centres undefined) | inactive: -0.475% |
| Cc1cccc(C)c1OP(C)(N)=O (centres undefined) | inactive: -3.93% |
| COc1ccccc1OP(C)(=O)Nc1ccc(C)cc1 (centres undefined) | inactive: 0.866% |
| Cc1ccc(NP(C)(=O)Oc2ccccc2)c(C)c1 (centres undefined) | inactive: 1.71% |
| CCOC(=O)c1ccc(NP(C)(=O)Oc2ccccc2)cc1 (centres undefined) | inactive: -1.87% |
| Cc1cc(C)cc(OP(C)(N)=O)c1 (centres undefined) | inactive: 1.23% |
| COc1ccccc1OP(C)(=O)Nc1cc(Cl)ccc1C (centres undefined) | inactive: 0.283% |
| COc1ccc(OP(C)(=O)Nc2cccc(F)c2)cc1 (centres undefined) | inactive: 2.12% |
| CCN(CC)CCCOC(=O)C(O)(c1ccccc1)c1ccccc1 | inactive: -4.01% |
| COc1ccccc1OP(C)(=O)Nc1ccc(Br)cc1 (centres undefined) | inactive: -2.63% |
| COc1ccc(OP(C)(=O)Nc2ccccn2)cc1 (centres undefined) | inactive: 2.92% |

| SMILES | enhancement |
| --- | --- |
| CN(C)CCOC(=O)C(O)(c1ccccc1)C1CCCC1 (centres undefined) | inactive: -12.6% |
| Cc1c(NP(C)(=O)Oc2ccc(C(C)C)cc2)c(=O)n(-c2ccccc2)n1C (centres undefined) | inactive: 5.79% |
| O=[N+]([O-])c1cc([N+](=O)[O-])c(Nc2ccccn2)c([N+](=O)[O-])c1 | inactive: 9.68% |
| CP(=O)(Nc1ccccn1)Oc1ccccc1 (centres undefined) | inactive: 10.3% |
| COc1ccccc1OP(C)(=O)Nc1ccc(C)cc1C (centres undefined) | inactive: -3.48% |
| CCc1ccc(OP(C)(=O)O)cc1 | inactive: -7.79% |
| Cc1cc(C)cc(OP(C)(=O)Nc2cccc(C(F)(F)F)c2)c1 (centres undefined) | inactive: 1.75% |
| COc1ccccc1OP(C)(=O)Nc1ccc(C)c(C)c1 (centres undefined) | inactive: 4.42% |
| COc1ccc(OP(C)(=O)Nc2ccccc2Br)cc1 (centres undefined) | inactive: -3.88% |
| Cc1nc2ccc3ccccc3c2o1.O=[N+]([O-])c1cc([N+](=O)[O-])c(O)c([N+](=O)[O-])c1 | inactive: 0.209% |
| CP(=O)(Nc1ccc(Cl)cc1Cl)Oc1ccccc1 (centres undefined) | inactive: -0.773% |
| CP(=O)(OCCOc1ccccc1)OCCOc1ccccc1 | inactive: 1.56% |
| CCOC(=O)c1ccc(NP(C)(=O)Oc2ccc(Cl)cc2)cc1 (centres undefined) | inactive: -3.39% |
| CP(=O)(OC12CC3CC(CC(C3)C1)C2)OC12CC3CC(CC(C3)C1)C2 | inactive: 7.44% |
| CCN(CC)CC(O)COC(=O)C(O)(c1ccccc1)C1CCCCC1 (centres undefined) | inactive: 0.798% |
| COc1ccc(OP(C)(=O)Nc2ccc(Br)cc2)cc1 (centres undefined) | inactive: -2.29% |
| COc1ccccc1OP(C)(=O)Nc1c(C)n(C)n(-c2ccccc2)c1=O (centres undefined) | inactive: 1.29% |
| O=C(OCCCN1CCCC1)C(O)(c1ccccc1)C1CCCCC1 (centres undefined) | inactive: 6.51% |
| CP(=O)(Oc1ccccc1)N1CCOC1=O (centres undefined) | inactive: 1.17% |
